Protein sequences, listed by entry. Tags and fused reporters are not part of them.
UniProt P0DMS8, whole entry: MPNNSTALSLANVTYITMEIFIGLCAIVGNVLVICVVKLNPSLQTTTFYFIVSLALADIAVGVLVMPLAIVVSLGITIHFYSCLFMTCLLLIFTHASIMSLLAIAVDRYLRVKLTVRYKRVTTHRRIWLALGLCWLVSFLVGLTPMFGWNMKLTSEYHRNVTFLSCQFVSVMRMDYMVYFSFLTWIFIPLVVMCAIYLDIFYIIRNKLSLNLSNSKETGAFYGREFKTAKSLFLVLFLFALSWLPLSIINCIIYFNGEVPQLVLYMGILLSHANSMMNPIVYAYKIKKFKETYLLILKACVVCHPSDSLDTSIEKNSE

According to patent US5646156A, “Inhibition of eosinophil activation through A3 adenosine receptor antagonism” (Merck & Co., Inc., priority 1994, dated 1997):

Target: T1, human A3 adenosine receptor (Homo sapiens, UniProt P0DMS8)
T1 construct: clone HS-21a contained the complete open reading frame corresponding to the human homolog of the rat A3 adenosine receptor; expressed in transfected cells; host or cells: CHO cells, stably transfected (pCMV5-A3; pSVL and pREP vectors are also described)
Experiment: Competition binding vs 125I-ABA, membranes of CHO cells stably expressing HS-21a (human A3 adenosine receptor)
Conditions: competition with 125I-ABA
Method: Pellets were resuspended in 5 mM Hepes, pH 7.4/5 mM MgCl2 /0.1 mM benzamidine/0.1 mM PMSF at a protein concentration of 1-2 mg/mL and were incubated with adenosine deaminase (Boehringer Mannheim), 2 U/mL at 37° C. for 20 minutes. […] The assay was terminated by rapid filtration and three washes with ice-cold binding buffer on a Skatron harvester equipped with a receptor binding filtermat (Skatron Instruments, INC). […] Nonspecific binding was measured in the presence of 1 μM I-ABA. […] Binding data were analyzed and competition curves were constructed by use of the nonlinear regression curve fitting program Graph PAD InPlot, Version 3.0 (Graph Pad Software, San Diego).

Row | Compound | Ki [nM]
1 | C[C@H](Cc1ccccc1)Nc1ncnc2c1ncn2[C@@H]1O[C@H](CO)[C@@H](O)[C@H]1O [R-PIA, (R,S)-N^6-phenyl-2-propyladenosine] | 34
2 | C[C@@H](Cc1ccccc1)Nc1ncnc2c1ncn2[C@@H]1O[C@H](CO)[C@@H](O)[C@H]1O [S-PIA, (R,S)-N^6-phenyl-2-propyladenosine] | 320
